Values quoted from earlier work in patent US11413240B2 (Board of Regents, The University of Texas System, priority 2016, dated 2022).

Settings: oral tablet vs intravenous (Walter-Sack et al., 2009)

Q: Which “maximum whole blood concentration, oral relative to intravenous administration” value does the source give for `CN(C)c1ccc2nc3ccc(=[N+](C)C)cc-3sc2c1` [methylene blue] here?
A: Its value is 1/100.
